Experimental data: US20090176802A1, “ANTIDOTES TO EXOGENOUS NEUROTOXIC AGENTS” (published 2009)

Amino acid sequences for entries named in this document (tags omitted). A change or cut given only in a name is not applied to a line headed by its entry.
UniProt Q5U3Y7: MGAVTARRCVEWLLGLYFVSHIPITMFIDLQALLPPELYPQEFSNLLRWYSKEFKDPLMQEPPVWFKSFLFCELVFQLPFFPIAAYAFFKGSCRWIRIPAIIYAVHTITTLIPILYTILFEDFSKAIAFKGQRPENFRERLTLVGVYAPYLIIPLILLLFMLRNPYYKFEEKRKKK
UniProt P22303: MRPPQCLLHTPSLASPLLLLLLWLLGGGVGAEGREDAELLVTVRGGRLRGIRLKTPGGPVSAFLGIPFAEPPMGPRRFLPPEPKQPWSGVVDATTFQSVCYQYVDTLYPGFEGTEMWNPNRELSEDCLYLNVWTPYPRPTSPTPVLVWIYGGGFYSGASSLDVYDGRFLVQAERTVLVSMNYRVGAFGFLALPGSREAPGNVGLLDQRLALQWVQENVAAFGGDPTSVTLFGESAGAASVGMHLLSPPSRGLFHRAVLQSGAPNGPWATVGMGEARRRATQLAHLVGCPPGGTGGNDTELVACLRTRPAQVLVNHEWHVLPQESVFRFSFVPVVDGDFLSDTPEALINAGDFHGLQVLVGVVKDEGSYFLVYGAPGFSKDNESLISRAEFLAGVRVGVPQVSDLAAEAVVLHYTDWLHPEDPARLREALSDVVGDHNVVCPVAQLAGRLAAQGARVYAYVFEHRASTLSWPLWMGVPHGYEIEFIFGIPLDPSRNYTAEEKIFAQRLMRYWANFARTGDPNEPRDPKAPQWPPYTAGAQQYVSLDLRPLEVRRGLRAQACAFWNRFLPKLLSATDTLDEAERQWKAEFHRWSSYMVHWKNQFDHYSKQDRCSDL
UniProt Q99720: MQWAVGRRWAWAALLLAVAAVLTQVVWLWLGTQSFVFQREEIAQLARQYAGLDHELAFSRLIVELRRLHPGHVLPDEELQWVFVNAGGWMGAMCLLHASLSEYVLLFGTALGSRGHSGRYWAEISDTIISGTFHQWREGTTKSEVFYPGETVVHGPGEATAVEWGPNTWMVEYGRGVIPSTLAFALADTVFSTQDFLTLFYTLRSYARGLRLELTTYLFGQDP

Columns and labels:
[1] = test system: Muscarinic receptor (non-specific); assay: Muscarinic receptor (non-specific) binding, [3H]-QNB
Sigma-2 receptor = Sigma-2 receptor (Rattus norvegicus, UniProt Q5U3Y7); assay: Sigma-2 receptor binding, [3H]-DTG
[2] = target: Recombinant human acetylcholinesterase (Homo sapiens, UniProt P22303); assay: Acetylcholinesterase assay; details: for IC50: human AchE
[3] = target: Human recombinant sigma-1 receptor (Homo sapiens, UniProt Q99720); assay: Human recombinant sigma-1 receptor binding, [3H]-(+)-pentazocine
[4] = test system: Neuronal nicotinic α-BGTX-insensitive receptor; assay: Neuronal nicotinic α-BGTX-insensitive receptor binding, [3H]-cytisine
[5] = test system: Central imidazoline-2 receptor (I2); assay: Central imidazoline-2 receptor (I2) binding, [3H]-idazoxan
[6] = compared with literature (Greig et al.)

“dimethyl-carbamic acid 2,3-bis-dimethylcarbamoyloxy-6-[4-(4-ethyl-piperazin-yl)-butyryl]-phenyl ester” was tested, and the “ligand for the receptor (in words)” value ([1]; M) was “not a ligand”, the IC50 ([1]; M (non-specific), rat cortex, 0.05 nM [3H]-QNB) was > 10000 nM and the IC50 (Sigma-2 receptor; Sigma-2, rat cortex, 5 nM [3H]-DTG) was > 10000 nM. For the same substance, the “ligand for the receptor (in words)” value (Sigma-2 receptor; sigma-2) was “not a ligand”, the IC50 (Sigma-2 receptor; σ-2 receptor) was < 10000 nM and the “selectivity for human AchE relative to donezepil” value [2, 6] was 6.8 fold. For the same substance, the “selectivity for human AchE relative to galantamine” value [2, 6] was 1.6 fold, the IC50 [2] was 1300 nM and the IC50 ([2]; substrate AMTCh 50 μM, 30 minutes at 37° C.) was 1300 nM. For the same substance, the nH ([3]; Sigma-1 (h), Hill coefficient) was 1.2, the IC50 ([3]; Sigma-1 (h), expressed in Jurkat cells, 8 nM [3H]-(+)-pentazocine) was 680 nM and the IC50 ([3]; human sigma-1 receptor) was 600 nM. For the same substance, the IC50 ([3]; σ-1 receptor) was 680 nM, the Ki ([3]; σ-1 receptor) was 560 nM and the IC50 ([4]; N (neuronal, α-BGTX insensitive), rat cortex, 1.5 nM [3H]-cytisine) was > 10000 nM. For the same substance, the “ligand for the receptor (in words)” value ([4]; N (α-BGTX insensitive)) was “not a ligand”, the “ligand for the receptor (in words)” value ([5]; I2) was “not a ligand” and the IC50 ([5]; I2 (central), rat cortex, 2 nM [3H]-idazoxan) was > 10000 nM.
